Laboratory results taken from ChEMBL document CHEMBL4256943, “Inhibitors of cyp17a1” (2016).

Species: Homo sapiens
Test: Selectivity factor, ratio of IC50 for human membrane bound C-terminal His4-tagged CYP21A2delta19H mutant to IC50 for human membrane bound C-terminal His4-tagged CYP17A1delta19H mutant

Work on `C[C@]12CC[C@H](O)CC1=C(C#N)C[C@@H]1[C@@H]2CC[C@]2(C)C(c3cccnc3)=CC[C@@H]12` yielded a Ratio IC50 of 3.1.
